The record followed here is patent US7678787B2, “Pyrrolobenzodiazepine pyridine carboxamides and derivatives as follicle-stimulating hormone receptor antagonists” (Wyeth, priority 2005, dated 2010).

The chains behind the UniProt entries cited, without tags or fusion partners. Residues count along the entry.
UniProt P16473, 21-764: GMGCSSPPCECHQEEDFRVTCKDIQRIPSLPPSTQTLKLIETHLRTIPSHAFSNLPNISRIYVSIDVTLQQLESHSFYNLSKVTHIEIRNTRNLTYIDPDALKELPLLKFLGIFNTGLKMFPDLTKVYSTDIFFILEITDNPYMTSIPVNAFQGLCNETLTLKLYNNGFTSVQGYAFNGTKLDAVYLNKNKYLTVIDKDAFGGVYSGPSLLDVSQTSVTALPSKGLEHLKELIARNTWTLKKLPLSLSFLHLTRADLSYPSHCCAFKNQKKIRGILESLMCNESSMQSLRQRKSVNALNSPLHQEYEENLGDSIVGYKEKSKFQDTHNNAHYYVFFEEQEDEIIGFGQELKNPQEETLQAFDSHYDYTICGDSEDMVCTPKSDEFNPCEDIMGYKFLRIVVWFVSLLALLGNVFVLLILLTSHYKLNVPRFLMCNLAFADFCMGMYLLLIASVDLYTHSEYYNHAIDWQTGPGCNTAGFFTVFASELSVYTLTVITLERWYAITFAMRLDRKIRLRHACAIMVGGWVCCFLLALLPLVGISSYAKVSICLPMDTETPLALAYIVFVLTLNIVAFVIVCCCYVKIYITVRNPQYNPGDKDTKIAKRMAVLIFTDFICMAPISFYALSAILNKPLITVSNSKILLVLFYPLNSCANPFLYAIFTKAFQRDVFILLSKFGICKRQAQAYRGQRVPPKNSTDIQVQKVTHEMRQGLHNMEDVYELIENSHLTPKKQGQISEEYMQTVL

Holding throughout (assay type): cell-based
The target of one assay is T1, hTSH-R (Homo sapiens, UniProt P16473).
T1 construct: expressed in transfected cells; host or cells: CHO-25 cells
Nature of the assay: Selectivity: cAMP accumulation in CHO-25 (hTSH-R) cells. The following applies: CHO-25 cells. The procedure: cAMP accumulation assays using CHO-25 (hTSH-R) cells were performed as described above for the CHO-3D2 cells with the following exceptions: CHO-25 cells were plated at a density of 50,000 cells/well (2). All test compounds were evaluated in a dose-response paradigm ranging from 0.01 to 30 μM. Controls and test compounds were evaluated in quadruplicate. Cells were treated with vehicle, hTSH at EC20 (5 nM; hTSH>98% pure, Cortex Biochem, Inc.), or the compounds in the presence or absence of the hTSH at its EC20 concentration. The ability of the compounds to inhibit cAMP-accumulation induced by hTSH was evaluated by RIA.
Along with the test compounds, hTSH was also run as a positive control in the agonist mode using concentrations ranging from 0.01 μM-1000 μM.
cAMP accumulation is expressed as fmol/ml. cAMP accumulation in the agonist mode, or the ability of the compound to inhibit hFSH-, hTSH-, or forskolin-induced cAMP-accumulation in the antagonist mode, was compared to the appropriate negative and positive controls. Data were analyzed by one-way analysis of variance and significant differences between treatments and control determined by Least Significant Difference test.

The next assay addresses T2, hFSH-R (Homo sapiens, UniProt P23945).
T2 construct: expressed in transfected cells; host or cells: CHO-3D2 cells (CHO-K1 parental line)
T2 sequence (P23945 18-695): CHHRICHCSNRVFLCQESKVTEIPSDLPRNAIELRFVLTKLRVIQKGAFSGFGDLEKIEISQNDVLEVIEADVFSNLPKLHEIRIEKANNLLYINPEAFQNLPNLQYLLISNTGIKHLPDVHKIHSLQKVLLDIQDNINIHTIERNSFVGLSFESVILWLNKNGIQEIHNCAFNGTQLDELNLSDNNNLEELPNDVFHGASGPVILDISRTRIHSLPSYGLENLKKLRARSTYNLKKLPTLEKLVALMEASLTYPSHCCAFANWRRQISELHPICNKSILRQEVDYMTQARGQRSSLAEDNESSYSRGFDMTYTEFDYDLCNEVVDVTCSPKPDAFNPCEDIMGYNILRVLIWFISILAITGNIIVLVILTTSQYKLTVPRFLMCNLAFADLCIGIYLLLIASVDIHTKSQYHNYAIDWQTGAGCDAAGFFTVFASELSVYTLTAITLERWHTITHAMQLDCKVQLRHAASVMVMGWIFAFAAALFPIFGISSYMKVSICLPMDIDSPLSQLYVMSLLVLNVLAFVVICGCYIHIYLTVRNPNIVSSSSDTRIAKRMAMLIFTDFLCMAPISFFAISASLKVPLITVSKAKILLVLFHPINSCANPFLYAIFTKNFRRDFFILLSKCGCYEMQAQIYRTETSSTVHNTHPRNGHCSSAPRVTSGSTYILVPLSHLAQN
Nature of the assay: cAMP accumulation (RIA) in CHO-3D2 cells (hFSH-R), hFSH-induced. The following applies: agonist mode, four-parameter logistic equation. As for the experimental part: IN VITRO BIO-ASSAY OF AGONISTS AND ANTAGONISTS TO THE FSH RECEPTOR. SELECTIVITY AND DEPENDENCY OF AGONISTS AND ANTAGONISTS TO THE FSH RECEPTOR
This assay was used to verify in vitro potency, efficacy, selectivity and receptor dependency of hits found to inhibit an FSH-R-CRE-luciferase driven reporter.
Compound Vehicle: Stock compounds were solubilized in 100% DMSO (Sigma-Aldrich Chemical Co., St. Louis, Mo.) at a concentration of 30 mM. The compounds subsequently were diluted in sterile assay medium consisting of Opti-MEM® I (Invitrogen/Life Technologies, Carlsbad, Calif.) with 0.1% (w/v) BSA (Sigma-Aldrich) prior to use in the bio-assay. The final concentration of DMSO in the assay was 0.1%. […]
Assay: On the day of the assay, cells were washed three times with 100 μl/well of assay medium consisting of Opti-MEM® I (Invitrogen/Life Technologies) with 0.1% (w/v) BSA (Sigma-Aldrich). […] Reactions were terminated by the addition of 50 μl of 0.2N hydrochloric acid to each well and cAMP-accumulation was measured by radioimmunoassay (RIA) using a commercially available kit (Amersham Biosciences, Piscataway, N.J.).
All test compounds were evaluated in a dose-response paradigm ranging from 0.01 to 30 μM. Controls and test compounds were evaluated in quadruplicate in a 96-well format. […] The ability of the compounds to inhibit the cAMP-accumulation induced by hFSH was evaluated by RIA.
In every assay the EC20 concentration was calculated and only those experiments in which the EC20 concentrations were equal to 1.85±0.4 ng/mL were accepted as valid. […]
cAMP accumulation is expressed as fmol/ml. cAMP accumulation in the agonist mode, or the ability of the compound to inhibit hFSH-, hTSH-, or forskolin-induced cAMP-accumulation in the antagonist mode, was compared to the appropriate negative and positive controls. Data were analyzed by one-way analysis of variance and significant differences between treatments and control determined by Least Significant Difference test. […]
Background: Cyclic AMP is a second messenger, typically raised through Gs and lowered through Gi signalling.

A further assay concerns the target T3, human FSH receptor (Homo sapiens, UniProt P23945).
T3 construct: host or cells: CHO-K1 (CHO FSH-R 6CRE-Luc, 1D7 cells)
T3 sequence (P23945 18-695): T2 sequence (P23945 18-695)
Nature of the assay: FSH receptor-dependent CRE-luciferase reporter gene assay (CHO FSH-R 6CRE-Luc cells). The settings on record: positive control concentration. An excerpt: FOLLICLE-STIMULATING HORMONE RECEPTOR-DEPENDENT CRE-LUCIFERASE REPORTER GENE ASSAY FOR THE IDENTIFICATION OF FOLLICLE-STIMULATING HORMONE (FSH) ANTAGONISTS
A Chinese hamster ovarian cell line that stably produces the human FSH receptor and a luciferase reporter gene regulated by cAMP response elements was used to identify and determine the relative potencies of human FSH receptor antagonists. See for example, Kelton, C. A., et al. Mol. Cell. Endocrinol. 89:141-151 (1992), Tilly, J. L., et al. Endocrinology 131:799-806(1992), and George, S. E., et al. J. Biomol. Screening 2:235-240 (1997). […]
The treated cells were incubated for 4 hours at 37° C. in a humidified incubator with 5% CO2/95% air. At the end of the incubation period, luciferase activity was measured by chemiluminescence using a commercially available kit (LucScreen, Tropix, Inc., Bedford, Mass.) according to the manufacturer's specifications, except that Buffer 1 and Buffer 2 were mixed together in equal proportion prior to the addition of 100 μl of the combined reagents to each well. Chemiluminescence was detected using a luminometer (EG & G Berthold Microlumat LB 96 P, Wallac, Gaithersburg, Md.) with chemiluminescence measured for 1 sec/well. Background luminescence was measured for each well prior to the addition of the LucScreen reagent. […]
(In general: A reporter such as luciferase makes a cellular process visible.)

Regarding “hTSH: hTSH >98% pure, Cortex Biochem, Inc.; positive control in selectivity assay”, in the assay with hTSH-R, the “EC20, cAMP accumulation” value was 5 nM.
For the substance “hFSH: Purified human FSH (>98%) purchased from Cortex Biochem, Inc.; positive control”, in the assay with hFSH-R, the “apparent EC20, cAMP accumulation” value stood at 1.85 ng/mL; the “apparent EC50, cAMP accumulation” value turned out to be 6.03 ng/mL; the “apparent EC80, cAMP accumulation” value came to 22.5 ng/mL. For the same substance, in the assay with human FSH receptor, the “EC50, CRE-luciferase” value was found to be 0.4 ng/mL and the “EC100, CRE-luciferase” value worked out at 1000 ng/mL.
